Test results published in US11261174B2, “Pyrazole O-linked carbamoyl cyclohexyl acids as LPA antagonists” (BRISTOL-MYERS SQUIBB COMPANY, priority 2017, dated 2022).

Sequences of proteins named here, by UniProt entry; tags and fusion partners are left off.
UniProt Q92633, whole entry: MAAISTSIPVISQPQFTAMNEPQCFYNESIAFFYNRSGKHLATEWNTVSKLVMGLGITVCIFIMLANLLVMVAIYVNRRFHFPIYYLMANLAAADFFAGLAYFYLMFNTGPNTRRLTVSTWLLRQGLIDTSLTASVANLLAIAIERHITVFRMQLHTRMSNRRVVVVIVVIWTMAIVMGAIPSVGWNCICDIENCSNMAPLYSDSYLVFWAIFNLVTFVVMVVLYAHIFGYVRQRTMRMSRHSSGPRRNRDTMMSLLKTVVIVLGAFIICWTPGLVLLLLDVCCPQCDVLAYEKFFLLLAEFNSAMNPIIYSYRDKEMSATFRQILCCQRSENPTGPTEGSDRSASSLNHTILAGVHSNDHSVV

Biological target: LPA1 (Homo sapiens, UniProt Q92633)
Test: LPA1 functional antagonist assay (LPA-induced calcium flux)
Details: read-out: hLPA1 IC50; CHO cells overexpressing human LPA1; calcium flux induced by 10 nM LPA

## CCCCN(C)C(=O)OCc1c(-c2ccc(O[C@H]3CCC[C@H](C(=O)O)C3)c(C#N)c2)cnn1C (relative stereo)
  IC50: 0.372 µM
